In US20260193238A1, “PHARMACEUTICAL COMPOUNDS AS PARP7 AND/OR PARP1 INHIBITORS” (Duke Street Bio Limited, priority 2022, published 2026) one finds IC50 data, which are given here for 43 molecules.

Protein sequences, listed by entry. Tags and fused reporters are not part of them. Residues count along the entry.
UniProt Q7Z3E1, 456-657 limits assumed: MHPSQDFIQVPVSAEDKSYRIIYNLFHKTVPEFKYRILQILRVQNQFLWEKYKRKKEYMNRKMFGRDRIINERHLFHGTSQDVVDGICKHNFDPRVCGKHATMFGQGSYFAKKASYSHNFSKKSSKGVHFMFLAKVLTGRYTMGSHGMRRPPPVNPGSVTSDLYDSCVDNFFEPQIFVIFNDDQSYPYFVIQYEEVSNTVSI
UniProt P09874, whole entry: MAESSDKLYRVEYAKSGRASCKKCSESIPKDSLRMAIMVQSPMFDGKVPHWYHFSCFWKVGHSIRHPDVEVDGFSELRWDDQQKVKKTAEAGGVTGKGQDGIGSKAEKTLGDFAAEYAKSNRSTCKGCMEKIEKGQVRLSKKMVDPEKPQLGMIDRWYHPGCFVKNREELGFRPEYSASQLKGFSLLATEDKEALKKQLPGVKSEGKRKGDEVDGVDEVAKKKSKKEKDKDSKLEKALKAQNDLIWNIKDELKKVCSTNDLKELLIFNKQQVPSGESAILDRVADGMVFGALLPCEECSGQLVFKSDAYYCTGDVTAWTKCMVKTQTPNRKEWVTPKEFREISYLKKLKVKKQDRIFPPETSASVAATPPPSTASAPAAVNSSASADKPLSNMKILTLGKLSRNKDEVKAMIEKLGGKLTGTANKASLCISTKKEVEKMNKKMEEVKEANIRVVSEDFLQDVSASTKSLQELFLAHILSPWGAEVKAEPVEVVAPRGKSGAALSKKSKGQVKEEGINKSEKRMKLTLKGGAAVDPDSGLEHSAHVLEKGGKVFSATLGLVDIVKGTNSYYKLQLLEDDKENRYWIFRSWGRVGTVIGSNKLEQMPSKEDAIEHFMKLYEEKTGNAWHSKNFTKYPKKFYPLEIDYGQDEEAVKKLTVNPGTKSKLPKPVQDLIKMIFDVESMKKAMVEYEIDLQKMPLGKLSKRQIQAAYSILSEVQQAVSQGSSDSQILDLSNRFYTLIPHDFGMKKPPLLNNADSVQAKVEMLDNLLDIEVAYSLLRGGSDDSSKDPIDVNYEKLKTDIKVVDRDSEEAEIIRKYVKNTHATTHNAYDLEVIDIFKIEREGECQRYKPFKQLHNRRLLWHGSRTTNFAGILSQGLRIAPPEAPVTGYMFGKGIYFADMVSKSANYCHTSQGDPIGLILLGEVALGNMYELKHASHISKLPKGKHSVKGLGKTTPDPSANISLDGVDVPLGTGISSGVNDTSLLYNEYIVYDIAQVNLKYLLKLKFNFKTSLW

Where two headings read alike, the source gives them in different places.

For assay [1], the target named is PARP7 (amino acids 456-657) (Homo sapiens, UniProt Q7Z3E1). Briefly: PARP7 biochemical DELFIA assay (auto-MARylation). To be noted: read-out: PARP7 activity.
For the next assay, the target named is PARP1 (Homo sapiens, UniProt P09874). Kind of assay: PARP1 biochemical DELFIA assay (auto-PARylation). To be noted: read-out: PARP1 activity.

As for `N#Cc1ccc2nc(N3CCN(C(=O)CN4CCCC4c4cc(C#N)c(=O)[nH]n4)CC3)oc2c1` (single isomer, unassigned) [Compound 145b], the IC50 in assay [1] (Table 1A) is under 10 nM; at PARP1 (Table 1A), 10 to 100 nM.

As for `N#Cc1cc(C2CCCN2CC(=O)N2CCN(c3nc4ccc(F)cc4o3)CC2)n[nH]c1=O` (single isomer, unassigned) [Compound 111a], the IC50 in assay [1] (Table 1A) was 1000 to 10000 nM; on PARP1 (Table 1A) it was over 10000 nM.

As to `O=C(CCN1CCN(c2ncc(C(F)(F)F)cn2)CC1)N1CCCC(c2cc(C(F)(F)F)c(=O)[nH]n2)C1` (single isomer, unassigned) [Compound 9a], the IC50 (in assay [1] (Table 1); on PARP1 (Table 1)) was 1000 to 10000 nM in each case.

For `O=C(CN1CCCC1c1cc(C(F)(F)F)c(=O)[nH]n1)N1CCN(c2ncc(C(F)F)cn2)CC1` (single isomer, unassigned) [112b], the results for the IC50 (in assay [1] (Table 1A); on PARP1 (Table 1A)) were 100 to 1000 nM and 1000 to 10000 nM, respectively.

Take `CCc1cc(C2CCCN2CC(=O)N2CCN(c3ncc(C(F)(F)F)cn3)CC2)c[nH]c1=O` (single isomer, unassigned) [Compound 57b]: the IC50 in assay [1] (Table 1A) is under 10 nM; on PARP1 (Table 1A) it was 100 to 1000 nM.

On to `N#Cc1cc(C2CCCN2CC(=O)N2CCN(c3nc4ccc(Cl)cc4o3)CC2)n[nH]c1=O` (single isomer, unassigned) [130a], for which the results for the IC50 (in assay [1] (Table 1A); at PARP1 (Table 1A)) were under 10 nM and 10 to 100 nM, respectively.

On to `O=C(CN1CCCC1c1cc(C(F)(F)F)c(=O)[nH]n1)NC1CCN(c2ncc(C(F)(F)F)cn2)CC1` (single isomer, unassigned) [Compound 33b], for which the IC50 was 100 to 1000 nM in assay [1] (Table 1A) and over 10000 nM on PARP1 (Table 1A).

With `N#Cc1ccc2oc(N3CCN(C(=O)CN4CCCC4c4cc(C#N)c(=O)[nH]n4)CC3)nc2c1` (single isomer, unassigned) [129a], the IC50 was in the range of 10 to 100 nM in assay [1] (Table 1A) and 100 to 1000 nM on PARP1 (Table 1A).

`O=C(CN1CCCC1c1cc(C(F)(F)F)c(=O)[nH]n1)N1CCN(c2nc3cc(F)ccc3o2)CC1` (single isomer, unassigned) [150a]: the IC50 in assay [1] (Table 1A) is under 10 nM; at PARP1 (Table 1A) it was 10 to 100 nM.

For `O=C(CN1CCN(c2ncc(C(F)(F)F)cn2)CC1)N1CCCC1c1c[nH]c(=O)c(C(F)(F)F)c1` (single isomer, unassigned) [Compound 63a], the IC50 was 1000 to 10000 nM in assay [1] (Table 1A) and over 10000 nM on PARP1 (Table 1A).

Regarding `N#Cc1ccc2oc(N3CCN(C(=O)CN4CCCC4c4cc(C#N)c(=O)[nH]n4)CC3)nc2c1` (single isomer, unassigned) [129b], the IC50 (in assay [1] (Table 1A); at PARP1 (Table 1A)) was over 10000 nM throughout.

For the molecule `O=C(CN1CCCC1c1cc(C(F)(F)F)c(=O)[nH]n1)N1CCN(c2ncc(OC(F)(F)F)cn2)CC1` (single isomer, unassigned) [Compound 72b], the IC50 in assay [1] (Table 1A) fell in the range of 10 to 100 nM; at PARP1 (Table 1A), 100 to 1000 nM.

As for `CNC(=O)c1ccc(N2CCN(C(=O)CCN3CCC3c3cc(C(F)(F)F)c(=O)[nH]n3)CC2)cn1` (single isomer, unassigned) [Compound 56b], the figures for the IC50 (in assay [1] (Table 1A); on PARP1 (Table 1A)) were 1000 to 10000 nM and 100 to 1000 nM, respectively.

`O=C(CN1CCCC1c1cc(C(F)(F)F)c(=O)[nH]n1)N1CC2(CCN(c3ncc(C(F)(F)F)cn3)CC2)C1` (single isomer, unassigned) [Compound 110b]: the figures for the IC50 (in assay [1] (Table 1A); on PARP1 (Table 1A)) were 1000 to 10000 nM and 100 to 1000 nM, respectively.

With `O=C(CN1CCCC1c1cc(C(F)(F)F)c(=O)[nH]n1)N1C2CCC1CN(c1ncc(C(F)(F)F)cn1)C2` (single isomer, unassigned) [109b], the IC50 is 1000 to 10000 nM in assay [1] (Table 1A) and over 10000 nM on PARP1 (Table 1A).

Turning to `O=C(CN1CCCC1c1cc(C(F)(F)F)c(=O)[nH]n1)N1CCN(c2ncc(C(F)F)cn2)CC1` (single isomer, unassigned) [112a], the IC50 is under 10 nM in assay [1] (Table 1A) and 10 to 100 nM at PARP1 (Table 1A).

On to `O=C(CN1CCCC1c1cc(C(F)(F)F)c(=O)[nH]n1)N1CCN(c2nc3cc(F)ccc3[nH]2)CC1` (single isomer, unassigned) [108b], for which the IC50 is 100 to 1000 nM in assay [1] (Table 1A) and 1000 to 10000 nM at PARP1 (Table 1A).

With `O=C(CN1CCCC1c1cc(C(F)(F)F)c(=O)[nH]n1)N1CCC(c2ncc(C(F)(F)F)cn2)CC1` (single isomer, unassigned) [Compound 70a], the IC50 is 1000 to 10000 nM in assay [1] (Table 1A) and over 10000 nM on PARP1 (Table 1A).

In the case of `CNC(=O)c1ccc(N2CCN(C(=O)CCN3CCCC3c3c[nH]c(=O)c(C(F)(F)F)c3)CC2)cn1` (single isomer, unassigned) [Compound 73b], the IC50 in assay [1] (Table 1A) lay within 1000 to 10000 nM; at PARP1 (Table 1A) it was 100 to 1000 nM.

As for `O=C(CCN1CCC(c2cc(C(F)(F)F)c(=O)[nH]n2)C1)N1CCN(c2ncc(C(F)(F)F)cn2)CC1` (single isomer, unassigned) [Compound 7a], the IC50 (in assay [1] (Table 1); on PARP1 (Table 1)) was 100 to 1000 nM throughout.

Take `O=C(CN1CCCC1c1cc(C(F)(F)F)c(=O)[nH]n1)N1CCN(c2nc3cc(F)ccc3[nH]2)CC1` (single isomer, unassigned) [108a]: the IC50 in assay [1] (Table 1A) is under 10 nM; on PARP1 (Table 1A) it was 10 to 100 nM.

For the molecule `CN(c1ncc(C(F)(F)F)cn1)C1CN(C(=O)CN2CCCC2c2cc(C(F)(F)F)c(=O)[nH]n2)C1` (single isomer, unassigned) [Compound 127b], the IC50 is 100 to 1000 nM in assay [1] (Table 1A) and 10 to 100 nM at PARP1 (Table 1A).

Turning to `N#Cc1cnc(N2CCN(C(=O)CN3CCCC3c3cc(C(F)(F)F)c(=O)[nH]n3)CC2)c(Cl)c1` (single isomer, unassigned) [143b], the IC50 (in assay [1] (Table 1A); at PARP1 (Table 1A)) was 1000 to 10000 nM each time.

On to `O=C(CN1CCCC1c1cc(C(F)(F)F)c(=O)[nH]n1)N1CCN(c2nc3ccccn3n2)CC1` (single isomer, unassigned) [Compound 117a], for which the results for the IC50 (in assay [1] (Table 1A); at PARP1 (Table 1A)) were 100 to 1000 nM and 1000 to 10000 nM, respectively.

On to `N#Cc1ccc(N2CCN(C(=O)CN3CCCC3c3cc(C(F)(F)F)c(=O)[nH]n3)CC2)cc1` (single isomer, unassigned) [Compound 71b], for which the IC50 (in assay [1] (Table 1A); on PARP1 (Table 1A)) was 1000 to 10000 nM throughout.

Consider `O=C(CCN1CCCC(c2cc(C(F)(F)F)c(=O)[nH]n2)C1)N1CCN(c2ncc(OC(F)(F)F)cn2)CC1` (single isomer, unassigned) [Compound 13a], for which the IC50 (in assay [1] (Table 1); at PARP1 (Table 1)) was 100 to 1000 nM throughout.

Regarding `N#Cc1cnc(N2CCN(C(=O)CN3CCCC3c3cc(C(F)(F)F)c(=O)[nH]n3)CC2)nc1` (single isomer, unassigned) [Compound 36a], the IC50 was 100 to 1000 nM in assay [1] (Table 1A) and 1000 to 10000 nM at PARP1 (Table 1A).

Regarding `CN(C(=O)CN1CCCC1c1cc(C(F)(F)F)c(=O)[nH]n1)C1CCN(c2ncc(C(F)(F)F)cn2)CC1` (single isomer, unassigned) [Compound 34b], the IC50 in assay [1] (Table 1A) was 10 to 100 nM; on PARP1 (Table 1A) it was 100 to 1000 nM.

Take `O=C(CN1CCCCC1c1cc(C(F)(F)F)c(=O)[nH]n1)N1CCN(c2ncc(C(F)(F)F)cn2)CC1` (racemic): the results for the IC50 (in assay [1] (Table 1); on PARP1 (Table 1)) were 100 to 1000 nM and 1000 to 10000 nM, respectively.

For `N#Cc1cc(F)cnc1N1CCN(C(=O)CN2CCCC2c2cc(C(F)(F)F)c(=O)[nH]n2)CC1` (single isomer, unassigned) [Compound 146a], the IC50 in assay [1] (Table 1A) was 1000 to 10000 nM; at PARP1 (Table 1A) it was over 10000 nM.

As for `O=C(CN1CCCC1c1cc(C(F)(F)F)c(=O)[nH]n1)N1CCN(c2ncc(C(F)(F)F)cc2F)CC1` (single isomer, unassigned) [89b], the IC50 in assay [1] (Table 1A) is 100 to 1000 nM; at PARP1 (Table 1A), 1000 to 10000 nM.

For `CNC(=O)c1ccc(N2CCN(C(=O)CN3CCCC3c3cc(C(F)(F)F)c(=O)[nH]n3)CC2)cn1` (single isomer, unassigned) [Compound 37b], the IC50 in assay [1] (Table 1A) fell in the range of 100 to 1000 nM; at PARP1 (Table 1A), 10 to 100 nM.

For `Cn1c(N2CCN(C(=O)CN3CCCC3c3cc(C(F)(F)F)c(=O)[nH]n3)CC2)nc2ccc(F)cc21` (single isomer, unassigned) [Compound 119b], the IC50 in assay [1] (Table 1A) is under 10 nM; at PARP1 (Table 1A), 100 to 1000 nM.

Take `CC1(c2cc(C(F)(F)F)c(=O)[nH]n2)CCCN1CC(=O)N1CCN(c2ncc(C(F)(F)F)cn2)CC1` (racemic): the IC50 was under 10 nM in assay [1] (Table 1A) and 10 to 100 nM on PARP1 (Table 1A).

As for `O=C(CN1CCCC1c1cc(C(F)(F)F)c(=O)[nH]n1)N1CCN(c2cc(Cl)c(F)cn2)CC1` (single isomer, unassigned) [Compound 80b], the IC50 in assay [1] (Table 1A) lay in the range of 100 to 1000 nM; on PARP1 (Table 1A) it was 1000 to 10000 nM.

Turning to `CNC(=O)c1cnc(N2CCN(C(=O)CN3CCCC3c3cc(C(F)(F)F)c(=O)[nH]n3)CC2)cn1` (single isomer, unassigned) [Compound 54a], the results for the IC50 (in assay [1] (Table 1A); at PARP1 (Table 1A)) were 1000 to 10000 nM and over 10000 nM, respectively.

For `O=C(CN1CCCC1c1cc(C(F)(F)F)c(=O)[nH]n1)N1CCN(c2nc3cc(F)ccc3o2)CC1` (single isomer, unassigned) [93a], the IC50 (in assay [1] (Table 1A); on PARP1 (Table 1A)) was under 10 nM each time.

As for `O=C(CN1CCCC1c1cc(C(F)(F)F)c(=O)[nH]n1)N1CCN(c2cnc(C(F)(F)F)cn2)CC1` (single isomer, unassigned) [Compound 45a], the IC50 (in assay [1] (Table 1A); at PARP1 (Table 1A)) was 1000 to 10000 nM each time.

Turning to `O=C(CN1CCCC1c1cc(C(F)(F)F)c(=O)[nH]n1)N1CCN(c2ncc(F)cc2Cl)CC1` (single isomer, unassigned) [Compound 116b], the results for the IC50 (in assay [1] (Table 1A); at PARP1 (Table 1A)) were 10 to 100 nM and 100 to 1000 nM, respectively.

With `Cc1cc(C2CCCN2CC(=O)N2CCN(c3ncc(C(F)(F)F)cn3)CC2)n[nH]c1=O` (racemic), the values for the IC50 (in assay [1] (Table 1A); on PARP1 (Table 1A)) were 10 to 100 nM and 100 to 1000 nM, respectively.

For `CNC(=O)c1ccc(N2CCN(C(=O)CN3CCOCC3c3cc(C(F)(F)F)c(=O)[nH]n3)CC2)cn1` (single isomer, unassigned) [Compound 90b], the IC50 is over 10000 nM in assay [1] (Table 1A) and 1000 to 10000 nM at PARP1 (Table 1A).

With `N#Cc1cnc(N2CCN(C(=O)CN3CCCC3c3cc(C(F)(F)F)c(=O)[nH]n3)CC2)c(Cl)c1` (single isomer, unassigned) [143a], the IC50 in assay [1] (Table 1A) is under 10 nM; at PARP1 (Table 1A), 100 to 1000 nM.

Turning to `O=C(CN1CCC1c1cc(C(F)(F)F)c(=O)[nH]n1)N1CCN(c2ncc(C(F)(F)F)cn2)CC1` (racemic), the IC50 was under 10 nM in assay [1] (Table 1A) and 10 to 100 nM at PARP1 (Table 1A).
